# Yeast mating assay 1: variants of the scFv Ab-14

The target is the same throughout: PDVDLGDISGINAS, from the HR2 region of SARS-CoV-2 spike.

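The starting antibody came from a phage panning campaign against this peptide. The library (AAYL49) carries one to three amino acid substitutions per variant, with no insertions or deletions. In AlphaSeq, yeast of one mating type display the scFv and yeast of the other type display the target. After mating in shaken culture at 30 °C for 16 h, diploids were selected and their barcode pairs sequenced. Each replicate has its own calibration line, from reference interactions of the BCL2 family. The assay was run in three technical replicates.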

Parent scFv Ab-14: VH joined to VL by a (GGGGS)3 linker. Changes lie in the heavy chain CDRs alone.
VH: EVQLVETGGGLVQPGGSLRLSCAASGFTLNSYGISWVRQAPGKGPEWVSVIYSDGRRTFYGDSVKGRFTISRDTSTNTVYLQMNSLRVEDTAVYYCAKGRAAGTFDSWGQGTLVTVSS
VL: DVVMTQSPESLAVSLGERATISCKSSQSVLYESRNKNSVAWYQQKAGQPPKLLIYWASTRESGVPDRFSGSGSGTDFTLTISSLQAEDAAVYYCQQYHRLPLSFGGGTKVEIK

Positions count from residue 1 of the parent VH; L29F puts F in place of L.
All variants listed here change I51 of the VH, counted from its first residue.
Affinities are written as log10 Kd with Kd in nM; a lower number is a better binder.
A mean of the replicates is given; it leaves out those without a signal.
"ND" means that the variant was in the library but no mating with the target was seen in that replicate; the authors take this as a sign of poor binding, and no number exists.
Empty control strains, which show no peptide, gave a signal in 15% of pairings with library AAYL49; the median was 4.06 and 95% of these signals were weaker than 2.83. No background was subtracted. The control count says in how many pairings with the empty strains this scFv gave a signal.
In this assay the parent's reference entry averaged 0.65; its copy inside this library read 4.11 (one replicate of three).

The variant L29F+I51Y+A102D gave ND, ND, ND (controls 1 of 9). For I51D+S107C, the assay gave ND, ND, 3.58 (controls 2 of 9). With I51N+S107V the result was ND, 3.84, 4.49 (mean 4.16; controls 3 of 9). For F27R+I51V+R100P, the assay gave ND, ND, ND (controls 0 of 9). The variant N30F+I51K+G103K gave ND, 3.26, ND (controls 1 of 9). The variant Y32E+I51V+D54L gave 5.84, ND, ND (controls 4 of 9).

The variant G33D+I51G gave ND, ND, ND (controls 0 of 9). The variant I51D+S53H+G55S gave ND, ND, ND (controls 3 of 9). With I51A+D62R+R100H the result was 4.70, ND, ND (controls 1 of 9). For I51E+R56H+G99V, the assay gave ND, ND, ND (controls 2 of 9). With S35V+I51L+S63W the result was ND, ND, ND (controls 2 of 9). With I51E+D62E+V64F the result was ND, ND, ND (controls 0 of 9).

With N30W+I51T+Y52V the result was ND, 2.98, ND (controls 2 of 9). With I51F+K65D+G99P the result was ND, ND, ND (controls 0 of 9). With S35P+I51D+F59K the result was 3.99, ND, ND (controls 0 of 9). For I51K+F59E+S63R, the assay gave ND, ND, ND (controls 1 of 9). For F27C+I51D+S107A, the assay gave 5.04, ND, ND (controls 6 of 9). The variant I51G showed ND, ND, ND (controls 0 of 9).

With G26N+I51T+T58Q the result was ND, 4.04, ND (controls 1 of 9). The variant L29E+I51G showed 4.75, 4.89, ND (mean 4.82; controls 4 of 9). The variant S31T+V50E+I51D showed ND, ND, ND (controls 1 of 9). The variant I51H+S53G+K65L gave ND, ND, ND (controls 1 of 9). The variant F27D+I51E+T58H gave ND, ND, ND (controls 2 of 9). The variant I51C+K65G+A101F gave ND, 4.26, 6.15 (mean 5.21; controls 5 of 9).

The variant I51A+D54Y+D106A gave ND, ND, ND (controls 1 of 9). With S35M+I51W+A102Y the result was ND, ND, ND (controls 0 of 9). With F27Y+L29R+I51K the result was ND, ND, ND (controls 0 of 9). With T28V+I51E+T104P the result was ND, ND, ND (controls 0 of 9). The variant I51C gave 3.72, ND, ND (controls 0 of 9). The variant S31V+I51V gave ND, 4.66, ND (controls 2 of 9).

For N30T+I51C, the assay gave 5.15, ND, 3.99 (mean 4.57; controls 1 of 9). The variant I34V+I51C+D106Y gave ND, 3.62, 3.41 (mean 3.51; controls 3 of 9). For I51Q, the assay gave 4.75, 5.03, 4.37 (mean 4.72; controls 7 of 9). The variant I34G+I51S showed ND, ND, ND (controls 0 of 9). The variant I51R+D62W+A102L showed ND, ND, ND (controls 0 of 9). The variant I51P+A101M gave ND, ND, ND (controls 1 of 9).

The variant N30G+I51K+V64E gave ND, 3.13, ND (controls 2 of 9). For G26E+G33M+I51W, the assay gave ND, ND, ND (controls 0 of 9). The variant I51A+Y60P+D106W gave 5.37, ND, 4.38 (mean 4.88; controls 1 of 9). The variant I51Y+T58V+S63G gave ND, 4.69, ND (controls 3 of 9). The variant I51L+Y52F+T104E showed 4.35, 3.44, ND (mean 3.89; controls 7 of 9). With Y32H+I51C the result was ND, ND, ND (controls 0 of 9).

With T28N+I51T+G103I the result was ND, 5.66, 4.61 (mean 5.13; controls 4 of 9). For V50H+I51W+F105W, the assay gave ND, ND, ND (controls 3 of 9).

The closing 4 entries, repeated:

changes,"log10 Kd, replicates","mean, log10 nM",empty controls
I51L+Y52F+T104E,"4.35, 3.44, ND",3.89,7/9
Y32H+I51C,"ND, ND, ND",ND,0/9
T28N+I51T+G103I,"ND, 5.66, 4.61",5.13,4/9
V50H+I51W+F105W,"ND, ND, ND",ND,3/9

Data: MIT Lincoln Laboratory AlphaSeq set, Engelhart et al. 2022, doi:10.1038/s41597-022-01779-4, as distributed in FLAb.